Test results reported in patent publication US20120151612A1, “NON-SURGICAL APPROACH TO PREVENT AND CORRECT CRANIOFACIAL MALFORMATIONS DURING DEVELOPMENT” (UNIVERSITY OF SOUTHERN CALIFORNIA, priority 2010, published 2012).

System: Tgfbr2^fl/fl; Wnt1-Cre MEPM cells
Assay: Lipid droplet accumulation (Oil Red O staining) in primary MEPM cells
Format: cell-based, mice
Method: Histological examination. Cryosections were stained with Oil Red O to detect lipid production. Prepared sections were washed three times in phosphate buffer saline (PBS) (each wash 5 min) and fixed in 4% formaldehyde in 0.1 M phosphate buffer for 1 h at room temperature. Sections were then incubated for 15 min in 60% isopropanol and stained for 15 min with a filtered solution of three parts of Oil Red O (saturated in isopropanol) and two parts of ddH2O. For the next step, slides were briefly rinsed in 60% isopropanol and washed thoroughly in ddH2O. Cells were counterstained in Mayers Hematoxylin Solution.
Primary MEPM cells. Primary MEPM cells were obtained from E13.5 embryos. Briefly, palatal shelves were dissected at E13.5, and trypsinized for 30 minutes at 37° C. in a CO2 incubator. After pipetting thoroughly, cells were cultured in Dulbecco's modified Eagle's medium containing 10% fetal bovine serum supplemented with penicillin, streptomycin, L-glutamate, sodium pyruvate, and nonessential amino acids.

O=[N+]([O-])c1ccc(-c2nc(-c3ccncc3)c(-c3ccc(F)cc3)[nH]2)cc1 [PD169316, 4-[5-(4-fluorophenyl)-2-(4-nitrophenyl)-1H-imidazol-4-yl]-pyridine]
lipid droplet accumulation: failed to detect lipid droplet accumulation; also recorded: Lipid droplets did not accumulate

Entries after “also recorded” stand apart in the source; their conditions may differ.
